Biological target: BCL6-NCOR2(SMRT) corepressor protein-protein interaction (Homo sapiens (Human), UniProt P41182)
Test: NanoBRET cell assay in transfected HEK293T cells
Assay type: cell-based
Conditions: 6 hr

With `Cn1c(=O)cc(NC(C)(C)c2ncccn2)c2cc(Nc3ccnc(Cl)c3C#N)ccc21` [Example 1a, 2-Chloro-4-[[1-methyl-4-[(1-methyl-1-pyridin-2-yl-ethyl)amino]-2-oxo-6-quinolyl]amino]pyridine-3-carbonitrile] the IC50 (NanoBRET cell pIC50, further generated data (Table 2b)) was 0.468 µM and the IC50 (NanoBRET cell pIC50, initially generated data (Table 2a)) was 0.676 µM.

— US11161839B2, “2-quinolone derived inhibitors of BCL6” (Cancer Research Technology Limited, priority 2017, dated 2021)
